The record followed here is patent publication US9040725B2, “Benzocycloheptane and benzoxepine derivatives” (Janssen Pharmaceutica NV, priority 2008, dated 2015).

Chains of the proteins cited; added tags and fusions are not shown.
UniProt Q92847, whole entry: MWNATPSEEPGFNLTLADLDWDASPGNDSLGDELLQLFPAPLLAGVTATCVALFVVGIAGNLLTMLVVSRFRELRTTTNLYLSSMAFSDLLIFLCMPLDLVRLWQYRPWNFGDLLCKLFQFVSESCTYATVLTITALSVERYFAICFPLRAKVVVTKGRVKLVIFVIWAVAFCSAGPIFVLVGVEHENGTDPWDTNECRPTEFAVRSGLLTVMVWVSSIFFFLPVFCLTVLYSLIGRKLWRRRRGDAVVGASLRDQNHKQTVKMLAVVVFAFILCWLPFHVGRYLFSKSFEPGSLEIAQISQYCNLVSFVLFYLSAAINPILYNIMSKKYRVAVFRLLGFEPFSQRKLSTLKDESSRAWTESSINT

The target of test [1] is GHS1A-receptor (Homo sapiens, UniProt Q92847). The test is described as follows: Ghrelin-agonism in HEK293 cells (intracellular calcium, FLIPR). Format: cell-based. The conditions noted are these: HEK293 cells permanently transfected with GHS1A-receptor, calcium fluorescence (fluo-4 or Kit-3), EC50 in M, tested form: oxalate.
The subject of test [2] is NMRI-mice. The experiment in a line: Acceleration of gastric emptying and small intestinal propulsion in NMRI-mice. Format: in vivo. The settings on record: lowest active dose, subcutaneous, 30 min before phenol red test meal, tested form: oxalate. As to the method:
Male NMRI-mice weighing around 25 gram were fasted for 20 h and had free access to drinking water. Test compounds were administered to the animals by subcutaneous route 30 min before they were given a test meal by oral gavage. The test meal consisted of 0.3 ml of a chocolate nutridrink solution (1.0 kcal/ml) containing phenol red marker (5 mg/ml). Fifteen min after administration of the meal, the mice were sacrificed by CO2 gas inhalation. The phenol red content remaining in the stomach (extracted from the stomach with NaOH) was determined at 557 nm in a spectrophotometer and expressed as extinction units. Small intestinal propulsion was determined as the distance traveled by the phenol red marker through the intestine and expressed as a percentage of total small intestinal length (from the pylorus to the ileo-cecal junction).
The lowest dose that was active for each parameter was noted as the lowest active dose (LAD). Table 12 discloses LAD values.

With `CN(C)CCC[C@@]1(O)c2ccccc2CCC[C@@H]1c1ccc(Cl)cc1` (single isomer, unassigned), the negative-log EC50 (pEC50) in test [1] was 5.5. The “LAD (mg/kg) Small intestinal propulsion” value in test [2] (active when >60% of animals had phenol red front beyond 85% of small intestinal length) is recorded as over 10 mg/kg. The “LAD (mg/kg) Gastric emptying” value in test [2] (stomach content 15 min after meal, active when >60% of animals below 0.9 extinction units) is over 10 mg/kg.

The pEC50 is the negative decadic logarithm of the EC50, by convention in mol/L.
